This data set concerns human red blood cells. Nature of the data set: Haemolytic assay. It is filed as cell-based. To be noted: at concentrations as low as 6.3 μM. The method, then:
Selected synthesised peptide analogues were also screened for haemolytic activity using human red blood cells as described previously (Sperstad, S. V., et al. (2009) Dev. Comp. Immunol. 33, 583-591). The assay was performed on 96-well U-shaped microtiter plates (Nagle Nunc) with 50 μl peptide sample, 40 μl phosphate-buffered saline (PBS) and 10 μl red blood cells. After one hour of incubation at 37° C. in a shaker, the plate was centrifuged at 200 g for 5 min and the supernatants (60 μl) were carefully transferred to a new flat-bottomed polycarbonate microtiter plate (Nagle Nunc) and the release of haemoglobin (absorbance at 550 nm) was measured on a Synergy H1 multimode reader (BioTek, Vt., USA). Cell suspension added 0.05% Triton X-100 (Sigma-Aldrich, Mo., USA) in PBS served as positive (100% haemolysis) control and cell suspension added PBS served as negative (0% haemolysis, blank) control. The percent haemolysis was calculated using the formula [(Asample-Abaseline)/(Atriton-Abaseline)]×100. The cytotoxic peptide melittin (Sigma-Aldrich) was used as a positive control peptide and for comparison. The experiment was performed in triplicates with peptide concentrations ranging from 200 μM to 1.56 μM in two-fold dilutions.

Regarding `CC[C@H](C)[C@H](NC(=O)CN)C(=O)NCC(=O)N[C@@H](C)C(=O)N[C@H](C(=O)N[C@@H](CC(C)C)C(=O)N[C@@H](CCCCN)C(=O)N[C@H](C(=O)N[C@@H](CC(C)C)C(=O)N[C@H](C(=O)N[C@H](C(=O)NCC(=O)N[C@@H](CC(C)C)C(=O)N1CCC[C@H]1C(=O)N[C@@H](C)C(=O)N[C@@H](CC(C)C)C(=O)N[C@H](C(=O)N[C@@H](CO)C(=O)N[C@@H](Cc1c[nH]c2ccccc12)C(=O)N[C@H](C(=O)N[C@@H](CCCCN)C(=O)N[C@@H](CCCNC(=N)N)C(=O)N[C@@H](CCCCN)C(=O)N[C@@H](CCCNC(=N)N)C(=O)N[C@@H](CCC(N)=O)C(=O)N[C@@H](CCC(N)=O)C(N)=O)[C@@H](C)CC)[C@@H](C)CC)[C@@H](C)O)[C@@H](C)O)C(C)C)C(C)C` [melittin, reference compound], the haemolysis is reported as 100%.
